Residue numbers refer to the chain shown, from its start.
Tests used:
[1] = molecular target: Vg5/Vd2 TCR on SKW3 cells (UniProt A0JD36); experiment: flow cytometry, dose-response binding at 37° C. on SKW3 cells expressing Vg5/Vd2
[2] = molecular target: Vg9/Vd1 TCR on SKW3 cells (UniProt Q99603); experiment: flow cytometry, dose-response binding at 37° C. on SKW3 cells expressing Vg9/Vd1
[3] = molecular target: Vg9/Vd2 TCR on SKW3_4 cells (UniProt Q99603); experiment: flow cytometry, dose-response binding at 37° C. on SKW3_4 cells expressing Vg9/Vd2

Chains of the proteins cited; added tags and fusions are not shown. Residues count along the entry.
UniProt A0JD36, 20-115: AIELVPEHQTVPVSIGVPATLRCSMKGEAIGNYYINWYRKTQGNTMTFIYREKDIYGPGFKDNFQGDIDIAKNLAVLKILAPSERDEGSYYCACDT
UniProt Q99603, 21-122: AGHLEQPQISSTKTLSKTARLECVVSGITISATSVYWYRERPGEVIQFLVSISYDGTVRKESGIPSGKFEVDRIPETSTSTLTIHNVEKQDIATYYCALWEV

B1: VG9B64 (antibody, human IgG1, kappa, V domains shown)
VH: QVQLVESGPTLVKPTQTLTLTCTFSGFSLSISGVSVGWIRQPPGKALEWLALIYWNDDKRYSPSLQSRVTITKDTSKNQVVLTVTNMDSVDTATYYCVHSGQWLEGDAFDIWGQGTMVTVSS
VL: DIVMTQTPLSSPVTLGQPASISCRSSESLVHSDGNTYLSWLQQSPGQPPRLLIYKISNRFSGVPDRFSGSGAGTDFTLKISRVEAEDVGVYYCMQATQFPLTFGGGTKLEIKR
[1]
  Max. Activity (fold over background): 2.22
[2]
  Max. Activity (fold over background): 260
[3]
  Max. Activity (fold over background): 100

B2: VG9B32 (antibody, human IgG1, kappa, V domains shown)
VH: EVQLVQSGGDLLQPGGSLRLSCAASGFTFSRYAMNWVRQAPGKGLEWVSFISGTGYTVYYADSVKGRFTISRDNAKNSLYLQMNSLRDEDTAVYYCARDQEPGFDYWGQGTLVTVSS
VL: B1 VL with S26G, E27Q, S44R, Q98H, L101F, G105Q
[1]
  Max. Activity (fold over background): 2.52
[2]
  Max. Activity (fold over background): 108
[3]
  Max. Activity (fold over background): 40
